Results: ChEMBL document CHEMBL4184177, “Synthesis and bioevaluation study of novel N-methylpicolinamide and thienopyrimidine derivatives as selectivity c-Met kinase inhibitors” (Bioorg Med Chem, 2018)

Experiments:
[1] = species on record: Homo sapiens; assay: Selectivity ratio of IC50 for c-Kit (unknown origin) to IC50 for c-Met (unknown origin)
[2] = species on record: Homo sapiens; assay: Selectivity ratio of IC50 for EGFR (unknown origin) to IC50 for c-Met (unknown origin)
[3] = species on record: Homo sapiens; assay: Selectivity ratio of IC50 for FLT3 (unknown origin) to IC50 for c-Met (unknown origin)
[4] = species on record: Homo sapiens; assay: Selectivity ratio of IC50 for VEGFR2 (unknown origin) to IC50 for c-Met (unknown origin)

A Ratio IC50 [1] of 195, a Ratio IC50 [2] of 431 and a Ratio IC50 [3] of 59.4 were found for `Cc1cc(=O)n(-c2ccc(F)cc2)nc1C(=O)Nc1ccc(Oc2ncnc3ccsc23)c(F)c1` in this work. For the same molecule, the Ratio IC50 [4] was 23.7.
